{"source": "patent US20210299144A1", "about": "“USE OF PR[…] TO REDUCE CYST FORMATION IN KIDNEY” (priority 2019, published 2021)", "key": {"[1]": {"assay": "Concentration of pregnenolone sulfate in standard external solution (HPLC-UV/Vis)", "assay_type": "physicochemical", "conditions": "standard external solution pH 7.4, room temperature, 10-60 min", "protocol": "For the electrophysiological studies, pregnenolone sulfate was prepared at nominal concentrations up to 300 μM in standard external solution. […] In order to determine the maximum stable concentration of pregnenolone sulfate in the external solution, aliquots of pregnenolone sulfate in dimethyl sulfoxide (DMSO) were diluted in external solution to final concentrations of 50, 200, 300, and 500 μM in duplicate, sonicated in a sonication bath (Thermo Fisher Scientific, Waltham, Mass., USA) for 1 min, and left at room temperature (25° C.) for 10, 30, or 60 min. […] Given the simple nature of the samples, HPLC-UV/Vis was used to determine the pregnenolone sulfate concentrations by adapting the method of Sanchez-Guijo et al. (see Sanchez-Guijo A, Oji V, Hartmann M F, Traupe H, Wudy S A “Simultaneous quantification of cholesterol sulfate, androgen sulfates, and progestagen sulfates in human serum by LC-MS/MS.” J Lipid Res. 2015; 56: 1843-1851), which is herein incorporated by reference in its entirety. […] The total flow rate was 1 mL min^−1 with a gradient as follows: 0 min, 80% A/20% B; 20 min, 30% A/70% B; 23 min, 1% A/99% B; 25 min, 1% A/99% B; 28 min, 80% A/20% B. An equilibration time of 10 min was used after each injection, and the absorbance at 215 nm (A215) was used for quantification based on the peak height. […]"}, "[2]": {"biological_target": "TRPM3α2 channels (Mus musculus, UniProt J9SQF3)", "conditions": "read-out: half-maximal effect, cited from earlier work"}}, "note": "Where two headings read alike, the source gives them in different places.", "data": [{"substance": "Pregnenolone sulfate", "values": [{"measurement": "solubility limit / true concentration at nominal 300 μM in standard external solution", "setting": "[1]", "value": "232 ± 9", "unit": "µM"}, {"measurement": "solubility limit / true concentration at nominal 300 μM in standard external solution", "setting": "[1]; listed as Pregnenolone sulfate", "value": 230, "unit": "µM"}, {"measurement": "EC50", "setting": "[2]; +80 mV", "value": 12, "unit": "µM"}, {"measurement": "EC50", "setting": "[2]; −80 mV", "value": 23, "unit": "µM"}]}]}
